Patent publication US20250319108A1, “COMBINATIONS” (AN2 Therapeutics, Inc., priority 2021, published 2025)

Assays:
Assay in all cases: Checkerboard synergy testing with EBO
Format in all cases: cell-based
Conditions in all cases: in combination with EBO, 7H9+5% OADC
[1] = test system: M. peregrinum ATCC 700686
[2] = test system: M. intracellulare 20-S-13
[3] = test system: M. abscessus ATCC 19977
[4] = test system: M. chimaera 20-S-05
[5] = test system: M. intracellulare DNA000111
[6] = test system: M. avium ATCC 700898
[7] = test system: M. avium 2285R

Structure (SMILES)	Summary Activity of EBO Drug Combinations (FIC index class) [1]	Summary Activity of EBO Drug Combinations (FIC index class) [2]	Summary Activity of EBO Drug Combinations (FIC index class) [3]	Summary Activity of EBO Drug Combinations (FIC index class) [4]	Summary Activity of EBO Drug Combinations (FIC index class) [5]	Summary Activity of EBO Drug Combinations (FIC index class) [6]	Summary Activity of EBO Drug Combinations (FIC index class) [7]
NCC[C@H](O)C(=O)N[C@@H]1C[C@H](N)[C@@H](O[C@H]2O[C@H](CN)[C@@H](O)[C@H](O)[C@H]2O)[C@H](O)[C@H]1O[C@H]1O[C@H](CO)[C@@H](O)[C@H](N)[C@H]1O [AMK, Amikacin]	A (A = Additive)	I (I = Indifferent)	I (I = Indifferent)	I (I = Indifferent)	I (I = Indifferent)	I (I = Indifferent)	I (I = Indifferent)
CC[C@H]1OC(=O)[C@H](C)[C@@H](O[C@H]2C[C@@](C)(OC)[C@@H](O)[C@H](C)O2)[C@H](C)[C@@H](O[C@@H]2O[C@H](C)C[C@H](N(C)C)[C@H]2O)[C@](C)(OC)C[C@@H](C)C(=O)[C@H](C)[C@@H](O)[C@]1(C)O [CLR, Clarithromycin]	I (I = Indifferent)	–	I (I = Indifferent)	I (I = Indifferent)	I (I = Indifferent)	I (I = Indifferent)	A (A = Additive)
